The source of these data is patent publication US20060089325A1, “Antisense modulation of PTP1B expression” (priority 2004, published 2006).

For this data set the following is noted: rat, in vivo.

On to `CN(CCOc1ccc(CC2SC(=O)NC2=O)cc1)c1ccccn1` (stereo not shown) [Rosiglitazone], for which the AST/ALT result is recorded as “no significant effects”.
